Earlier results as cited in publication PMC3121759 (PLoS ONE, 2011).

Molecular target: T1, GlyT-1 (Rattus norvegicus, UniProt P28572)
T1 construct: the tissues of whole brains or each specific brain region were homogenized; from tissue; host or cells: rat brain (whole brain or dissected regions; male Crl:CD (SD) rats)
T1 sequence (P28572 1-638): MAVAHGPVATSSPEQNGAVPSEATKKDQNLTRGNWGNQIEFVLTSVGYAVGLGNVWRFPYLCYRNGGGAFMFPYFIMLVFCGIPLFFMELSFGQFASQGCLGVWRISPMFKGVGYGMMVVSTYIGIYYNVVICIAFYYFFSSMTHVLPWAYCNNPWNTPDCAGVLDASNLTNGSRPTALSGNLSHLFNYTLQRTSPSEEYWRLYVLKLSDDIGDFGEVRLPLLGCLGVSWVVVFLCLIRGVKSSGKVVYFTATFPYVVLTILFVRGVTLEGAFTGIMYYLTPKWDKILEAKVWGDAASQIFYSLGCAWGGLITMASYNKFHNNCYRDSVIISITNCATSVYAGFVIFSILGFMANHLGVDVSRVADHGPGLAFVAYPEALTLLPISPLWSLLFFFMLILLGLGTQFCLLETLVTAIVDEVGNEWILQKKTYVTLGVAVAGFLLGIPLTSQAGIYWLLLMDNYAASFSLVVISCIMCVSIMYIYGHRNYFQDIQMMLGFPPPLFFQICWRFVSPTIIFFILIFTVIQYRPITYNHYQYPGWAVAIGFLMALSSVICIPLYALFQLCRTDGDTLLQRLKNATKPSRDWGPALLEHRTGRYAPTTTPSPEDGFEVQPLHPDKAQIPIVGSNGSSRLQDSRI
Conditions: cited from earlier work

NCC(=O)O [Glycine, glycine]
Type of interaction with binding of [3H]SB-733993 and [3H]GSK931145: competitive interactions
